Structures are written as SMILES. Only a part is listed here, and it is no random draw. Some results for these compounds are left out of this collection, so the calls shown say nothing about other tests. Records with an inconclusive call do not appear. Calls of active or inactive are those of the source. Calls come from the whole dose curve; as a rule, active = well fitted inhibition curve with a large enough effect; inconclusive = small, poorly fitted or top-dose-only effect; inactive = no such curve, though single readings can be large or run the other way.

Amino acid sequences for entries named in this document (tags omitted).
UniProt Q8WZA2, whole entry: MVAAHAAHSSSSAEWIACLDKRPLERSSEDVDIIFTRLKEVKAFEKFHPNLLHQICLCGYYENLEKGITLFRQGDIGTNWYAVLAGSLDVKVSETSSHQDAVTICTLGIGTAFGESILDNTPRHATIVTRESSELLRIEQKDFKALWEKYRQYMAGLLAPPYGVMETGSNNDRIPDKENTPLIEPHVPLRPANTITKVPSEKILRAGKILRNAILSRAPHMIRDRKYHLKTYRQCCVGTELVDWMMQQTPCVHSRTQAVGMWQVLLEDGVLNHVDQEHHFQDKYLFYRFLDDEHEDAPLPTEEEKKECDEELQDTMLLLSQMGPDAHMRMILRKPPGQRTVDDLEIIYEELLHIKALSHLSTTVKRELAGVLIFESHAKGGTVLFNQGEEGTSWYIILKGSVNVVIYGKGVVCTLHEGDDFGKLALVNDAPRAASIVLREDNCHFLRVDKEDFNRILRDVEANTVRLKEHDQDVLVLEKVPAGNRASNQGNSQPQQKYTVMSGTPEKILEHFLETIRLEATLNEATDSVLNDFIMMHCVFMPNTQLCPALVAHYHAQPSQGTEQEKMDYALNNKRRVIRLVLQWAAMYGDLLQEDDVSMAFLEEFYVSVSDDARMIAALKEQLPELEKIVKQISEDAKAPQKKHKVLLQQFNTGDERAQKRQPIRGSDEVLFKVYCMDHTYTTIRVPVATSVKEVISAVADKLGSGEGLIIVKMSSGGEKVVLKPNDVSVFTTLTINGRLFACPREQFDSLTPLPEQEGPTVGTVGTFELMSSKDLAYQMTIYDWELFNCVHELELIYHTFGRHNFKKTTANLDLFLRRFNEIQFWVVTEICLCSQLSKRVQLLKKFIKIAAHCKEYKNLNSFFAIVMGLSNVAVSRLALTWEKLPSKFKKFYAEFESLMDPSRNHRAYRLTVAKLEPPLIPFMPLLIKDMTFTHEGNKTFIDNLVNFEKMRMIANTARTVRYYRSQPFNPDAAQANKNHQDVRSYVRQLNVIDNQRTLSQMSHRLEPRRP

For the assay, the target named is Rap guanine nucleotide exchange factor 4 (Homo sapiens) (UniProt Q8WZA2). Briefly: Validation qHTS for antagonist of cAMP-regulated guanine nucleotide exchange factor 4 (EPAC2).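 Note: 100% = activation by cAMP agonist control; nearly all actives have a fitted effect of over 40% in size.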 The note with it: EPAC2 Rap1B BODIPY-GDP exchange, fluorescence; at 112 µM (top of the series). From the text: Principle Investigator: Xiaodong Cheng Ph.D. The University of Texas Medical Branch, […], TX MLPCN Grant: NS066510 In multi-cellular eukaryotic organisms, the effects of cAMP are transduced by two ubiquitously-expressed intracellular cAMP receptors, the classic protein kinase A/cAMP-dependent protein kinase (PKA/cAPK) and the more recently discovered exchange protein directly activated by cAMP/cAMP-regulated guanine nucleotide exchange factor (EPAC/cAMP-GEF). Both PKA and EPAC are ubiquitously expressed in all tissues, and an increase in intracellular cAMP levels will lead to the activation of both PKA and EPAC. […] This qHTS will be used to screen the Molecular Libraries Small Molecule Repository (MLSMR) as a concentration-titration series using the NCGC unique quantitative screening (qHTS) platform to find activators for EPAC1. […] Activators are identified by monitoring the change in fluorescence signal as the exchanged free BODIPY-GDP has a reduced fluorescence compared to Rap1-bound BODIPY-GDP. […]
Briefly, three uL of reagents (100 nM EPAC2, 250 nM RAP1B-BODIPY-GDP, 50 uM GDP) were dispensed into a 1536-well Greiner black solid-bottom medium binding assay plate. […] The assay plates were read at 5 minute intervals for 30 minutes in the ViewLux plate reader using 480nm excitation and 540nm emission filters. […]
On the technique in general: In qHTS, concentration-response curves come from the screen itself.
Consider `CN1CCCC(OC(=O)C(O)(c2ccccc2)c2ccccc2)C1` (stereo unspecified), for which the activity, negative = inhibition is inactive: 4.32%.

Values taken from PubChem BioAssay AID1645886 (National Center for Advancing Translational Sciences (NCATS), 2021).
